Assay results published in PubChem BioAssay (NCI).
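Method: 48-hour compound exposure of cells in 96-well plates, five concentrations, linear interpolation of endpoints. GI50: concentration for 50% inhibition of growth. TGI: concentration producing complete growth inhibition.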

Columns and labels:
Experiment in all cases: DTP human tumour cell line panel, 48 h
SK-OV-3 ovarian = test system: SK-OV-3 ovarian
OVCAR-5 ovarian = test system: OVCAR-5 ovarian
HCT-116 colon = test system: HCT-116 colon
NCI-H460 lung = test system: NCI-H460 lung
OVCAR-3 ovarian = test system: OVCAR-3 ovarian
SF-539 CNS = test system: SF-539 CNS
SF-295 CNS = test system: SF-295 CNS
UO-31 renal = test system: UO-31 renal
SK-MEL-5 melanoma = test system: SK-MEL-5 melanoma
BT-549 breast = test system: BT-549 breast
KM12 colon = test system: KM12 colon
NCI-H226 lung = test system: NCI-H226 lung
COLO 205 colon = test system: COLO 205 colon
CAKI-1 renal = test system: CAKI-1 renal
NCI-H522 lung = test system: NCI-H522 lung
OVCAR-8 ovarian = test system: OVCAR-8 ovarian
DU-145 prostate = test system: DU-145 prostate
SK-MEL-2 melanoma = test system: SK-MEL-2 melanoma
SNB-75 CNS = test system: SNB-75 CNS
ACHN renal = test system: ACHN renal
HCC-2998 colon = test system: HCC-2998 colon
NCI/ADR-RES ovarian = test system: NCI/ADR-RES ovarian
SW-620 colon = test system: SW-620 colon
PC-3 prostate = test system: PC-3 prostate
MOLT-4 leukemia = test system: MOLT-4 leukemia
MDA-MB-231 breast = test system: MDA-MB-231 breast
RXF 393 renal = test system: RXF 393 renal
M14 melanoma = test system: M14 melanoma
786-0 renal = test system: 786-0 renal
K-562 leukemia = test system: K-562 leukemia
MDA-MB-435 = test system: MDA-MB-435
RPMI-8226 leukemia = test system: RPMI-8226 leukemia
A498 renal = test system: A498 renal
SF-268 CNS = test system: SF-268 CNS
SK-MEL-28 melanoma = test system: SK-MEL-28 melanoma
HOP-62 NSCLC = test system: HOP-62 NSCLC
SNB-19 CNS = test system: SNB-19 CNS
SN12C renal = test system: SN12C renal
U251 CNS = test system: U251 CNS
A549 NSCLC = test system: A549 NSCLC
HL-60(TB) leukemia = test system: HL-60(TB) leukemia
CCRF-CEM leukemia = test system: CCRF-CEM leukemia
SR leukemia = test system: SR leukemia
IGROV1 ovarian = test system: IGROV1 ovarian
OVCAR-4 ovarian = test system: OVCAR-4 ovarian
LOX IMVI melanoma = test system: LOX IMVI melanoma
MCF7 breast = test system: MCF7 breast
UACC-257 melanoma = test system: UACC-257 melanoma
HS 578T breast = test system: HS 578T breast
HT29 colon = test system: HT29 colon
HCT-15 colon = test system: HCT-15 colon
NCI-H322M lung = test system: NCI-H322M lung
UACC-62 melanoma = test system: UACC-62 melanoma

Q: `COc1c(C)cc(N(CCCl)CCCl)c2ccccc12` was tested. Which GI50 (SK-OV-3 ovarian) did it give?
A: 4.3 µM

Q: And the TGI (SK-OV-3 ovarian)?
A: 36.7 µM

Q: And the GI50 (OVCAR-5 ovarian)?
A: 4.19 µM

Q: And the TGI (OVCAR-5 ovarian)?
A: 20.7 µM

Q: And the GI50 (HCT-116 colon)?
A: 2.96 µM

Q: And the TGI (HCT-116 colon)?
A: 39.6 µM

Q: And the GI50 (NCI-H460 lung)?
A: 0.488 µM

Q: And the TGI (NCI-H460 lung)?
A: 13.2 µM

Q: What about the GI50 (OVCAR-3 ovarian) of the same compound?
A: 4.66 µM

Q: What about the TGI (OVCAR-3 ovarian) of the same compound?
A: 20.5 µM

Q: And the GI50 (SF-539 CNS)?
A: 1.46 µM

Q: And the TGI (SF-539 CNS)?
A: 4.84 µM

Q: And the GI50 (SF-295 CNS)?
A: 0.527 µM

Q: What about the TGI (SF-295 CNS) of the same compound?
A: 2.72 µM

Q: And the GI50 (UO-31 renal)?
A: 2.67 µM

Q: And the TGI (UO-31 renal)?
A: 8.88 µM

Q: And the GI50 (SK-MEL-5 melanoma)?
A: 1.8 µM

Q: And the TGI (SK-MEL-5 melanoma)?
A: 5.48 µM

Q: And the GI50 (BT-549 breast)?
A: 2.93 µM

Q: What about the TGI (BT-549 breast) of the same compound?
A: 11.1 µM

Q: What about the GI50 (KM12 colon) of the same compound?
A: 11 µM

Q: And the TGI (KM12 colon)?
A: 36.3 µM

Q: What about the GI50 (NCI-H226 lung) of the same compound?
A: 9.07 µM

Q: What about the TGI (NCI-H226 lung) of the same compound?
A: 24 µM

Q: What about the GI50 (COLO 205 colon) of the same compound?
A: 7.02 µM

Q: And the TGI (COLO 205 colon)?
A: 21.8 µM

Q: And the GI50 (CAKI-1 renal)?
A: 0.394 µM

Q: And the TGI (CAKI-1 renal)?
A: 1.67 µM

Q: And the GI50 (NCI-H522 lung)?
A: 1.84 µM

Q: What about the TGI (NCI-H522 lung) of the same compound?
A: 3.63 µM

Q: And the GI50 (OVCAR-8 ovarian)?
A: 2.06 µM

Q: And the TGI (OVCAR-8 ovarian)?
A: 20.1 µM

Q: And the GI50 (DU-145 prostate)?
A: 2.33 µM

Q: What about the TGI (DU-145 prostate) of the same compound?
A: 12.9 µM

Q: What about the GI50 (SK-MEL-2 melanoma) of the same compound?
A: 2.19 µM

Q: What about the TGI (SK-MEL-2 melanoma) of the same compound?
A: 5.42 µM

Q: What about the GI50 (SNB-75 CNS) of the same compound?
A: 1.8 µM

Q: What about the TGI (SNB-75 CNS) of the same compound?
A: 8.89 µM

Q: And the GI50 (ACHN renal)?
A: 0.77 µM

Q: And the TGI (ACHN renal)?
A: 4.81 µM

Q: What about the GI50 (HCC-2998 colon) of the same compound?
A: 5.4 µM

Q: What about the TGI (HCC-2998 colon) of the same compound?
A: 20.3 µM

Q: What about the GI50 (NCI/ADR-RES ovarian) of the same compound?
A: 2.57 µM

Q: And the TGI (NCI/ADR-RES ovarian)?
A: 33 µM

Q: What about the GI50 (SW-620 colon) of the same compound?
A: 2.05 µM

Q: And the TGI (SW-620 colon)?
A: 22.3 µM

Q: What about the GI50 (PC-3 prostate) of the same compound?
A: 2.23 µM

Q: What about the TGI (PC-3 prostate) of the same compound?
A: 23.8 µM

Q: And the GI50 (MOLT-4 leukemia)?
A: 0.56 µM

Q: What about the TGI (MOLT-4 leukemia) of the same compound?
A: 3.68 µM

Q: What about the GI50 (MDA-MB-231 breast) of the same compound?
A: 11.9 µM

Q: And the TGI (MDA-MB-231 breast)?
A: 40.2 µM

Q: What about the GI50 (RXF 393 renal) of the same compound?
A: 1.7 µM

Q: What about the TGI (RXF 393 renal) of the same compound?
A: 4.1 µM

Q: What about the GI50 (M14 melanoma) of the same compound?
A: 2.87 µM

Q: And the TGI (M14 melanoma)?
A: 14.7 µM

Q: And the GI50 (786-0 renal)?
A: 1.96 µM

Q: And the TGI (786-0 renal)?
A: 5.54 µM

Q: What about the GI50 (K-562 leukemia) of the same compound?
A: 3.16 µM

Q: What about the TGI (K-562 leukemia) of the same compound?
A: 27.3 µM

Q: And the GI50 (MDA-MB-435)?
A: 2.95 µM

Q: What about the TGI (MDA-MB-435) of the same compound?
A: 14.9 µM

Q: And the GI50 (RPMI-8226 leukemia)?
A: 1.67 µM

Q: What about the TGI (RPMI-8226 leukemia) of the same compound?
A: 4.81 µM

Q: And the GI50 (A498 renal)?
A: 2.2 µM

Q: What about the TGI (A498 renal) of the same compound?
A: 9.72 µM

Q: And the GI50 (SF-268 CNS)?
A: 1.23 µM

Q: And the TGI (SF-268 CNS)?
A: 9.36 µM

Q: What about the GI50 (SK-MEL-28 melanoma) of the same compound?
A: 10.3 µM

Q: And the TGI (SK-MEL-28 melanoma)?
A: 26.3 µM

Q: What about the GI50 (HOP-62 NSCLC) of the same compound?
A: 2.8 µM

Q: What about the TGI (HOP-62 NSCLC) of the same compound?
A: 17.2 µM

Q: What about the GI50 (SNB-19 CNS) of the same compound?
A: 3.57 µM

Q: What about the TGI (SNB-19 CNS) of the same compound?
A: 46.4 µM

Q: What about the GI50 (SN12C renal) of the same compound?
A: 1.31 µM

Q: And the TGI (SN12C renal)?
A: 11.8 µM

Q: And the GI50 (U251 CNS)?
A: 1.36 µM

Q: What about the TGI (U251 CNS) of the same compound?
A: 7.31 µM

Q: And the GI50 (A549 NSCLC)?
A: 0.823 µM

Q: What about the TGI (A549 NSCLC) of the same compound?
A: 21.1 µM

Q: And the GI50 (HL-60(TB) leukemia)?
A: 0.75 µM

Q: And the TGI (HL-60(TB) leukemia)?
A: 4.73 µM

Q: What about the GI50 (CCRF-CEM leukemia) of the same compound?
A: 0.513 µM

Q: What about the TGI (CCRF-CEM leukemia) of the same compound?
A: 4.24 µM

Q: And the GI50 (SR leukemia)?
A: 0.319 µM

Q: What about the TGI (SR leukemia) of the same compound?
A: 4.35 µM

Q: And the GI50 (IGROV1 ovarian)?
A: 6.47 µM

Q: And the TGI (IGROV1 ovarian)?
A: 31.2 µM

Q: And the GI50 (OVCAR-4 ovarian)?
A: 10.1 µM

Q: And the TGI (OVCAR-4 ovarian)?
A: 69.8 µM

Q: And the GI50 (LOX IMVI melanoma)?
A: 1.94 µM

Q: And the TGI (LOX IMVI melanoma)?
A: 12.9 µM

Q: What about the GI50 (MCF7 breast) of the same compound?
A: 0.866 µM

Q: And the TGI (MCF7 breast)?
A: 15.9 µM

Q: What about the GI50 (UACC-257 melanoma) of the same compound?
A: 2.25 µM

Q: What about the TGI (UACC-257 melanoma) of the same compound?
A: 14 µM

Q: And the GI50 (HS 578T breast)?
A: 11.8 µM

Q: And the TGI (HS 578T breast)?
A: 61.3 µM

Q: And the GI50 (HT29 colon)?
A: 3.26 µM

Q: And the TGI (HT29 colon)?
A: 18.4 µM

Q: What about the GI50 (HCT-15 colon) of the same compound?
A: 2.42 µM

Q: And the TGI (HCT-15 colon)?
A: 27.9 µM

Q: What about the GI50 (NCI-H322M lung) of the same compound?
A: 8.78 µM

Q: What about the TGI (NCI-H322M lung) of the same compound?
A: 31.4 µM

Q: What about the GI50 (UACC-62 melanoma) of the same compound?
A: 2.6 µM

Q: What about the TGI (UACC-62 melanoma) of the same compound?
A: 13.8 µM
